Experimental data taken from patent US20200237736A1, “METHODS FOR PREVENTING OR TREATING CANCER RESISTANCE TO EGFR INHIBITION” (INSERM (INSTITUT NATIONAL DE LA SANTE ET DE LA RECHERCHE …, priority 2017, published 2020).

Assays:
[1] = tested on: PC9 cells containing EGFR-T790 CRISPR-barcodes; details: co-treatment with gefitinib; 14 or 22 days; FIG. 1B
[2] = tested on: parental, EGFR-T790M and EGFR-T790M/C797S PC9 cells; details: single agents; sorafenib 5 μM, osimertinib 1 μM; five days; FIG. 7B
[3] = tested on: EGFR-T790M PC9 cells containing the EGFR-C797S CRISPR-barcode; details: gavage from day 27; osimertinib 5 mg/kg, sorafenib 60 mg/kg or combination; FIG. 9

Q: Which “formation of resistant colonies” value [1] does the source give for `CNC(=O)c1cc(Oc2ccc(NC(=O)Nc3ccc(Cl)c(C(F)(F)F)c3)cc2)ccn1` [sorafenib] here?
A: Its value is “abolished the formation of resistant colonies”.

Q: And the “cell growth (colony forming assay)” value [2]?
A: Its value is “inhibited cell growth”.

Q: And the “growth of the tumors / tumor size” value [3]?
A: Its value is “initially inhibited, but it eventually resumed after a few weeks”.
